## Measured affinities in a library of Ab-14 heavy chain variants

Target peptide (SARS-CoV-2 spike, HR2 region): PDVDLGDISGINAS

Parent scFv Ab-14: VH joined to VL by a 15-residue (Gly4Ser)3 linker. Changes lie in the heavy chain CDRs alone.
VH: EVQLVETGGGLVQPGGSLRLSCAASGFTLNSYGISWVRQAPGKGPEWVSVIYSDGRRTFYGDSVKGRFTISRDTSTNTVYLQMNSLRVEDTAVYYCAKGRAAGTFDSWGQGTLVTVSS
VL: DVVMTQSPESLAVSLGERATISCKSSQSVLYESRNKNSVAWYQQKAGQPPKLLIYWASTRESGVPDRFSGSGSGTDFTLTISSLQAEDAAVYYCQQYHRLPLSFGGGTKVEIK

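The starting antibody came from a phage panning campaign against this peptide. The library (AAYL49) carries one to three amino acid substitutions per variant, with no insertions or deletions. The assay is AlphaSeq: two haploid yeast populations carry antibody and antigen on their surface. After mating in shaken culture at 30 °C for 16 h, diploids were selected and their barcode pairs sequenced. Read counts were normalised to the haploid input and turned into Kd by a linear fit to BCL2-family pairs of known affinity, for each replicate. Mating was done three times.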

The parent's heavy chain CDRs are GFTLNSYGIS, VIYSDGRRTFYGDSVK, GRAAGTFDS; each variant's own CDRs replace them letter for letter. Kd is apparent (estimated from mating counts) and averaged on the log scale over replicates with a signal. Smaller is tighter. An entry "no signal" has no value in the source: the pair was not observed among the diploids in any replicate. This suggests poor binding but is not conclusive. Background: pairings of library AAYL49 with three empty control strains gave a value in 15% of cases (median 11 µM, 5th percentile 680 nM). Values in that range, when seen in few replicates, are hard to tell from nonspecific mating.

| Kd (apparent) | seen in | CDR-H1 | CDR-H2 | CDR-H3 |
|---|---|---|---|---|
| 3.4 µM | 1 of 3 | GFTLNSYGIS | VIYSDGRRTFIGDSVK | GNAYGTFDS |
| no signal | 0 of 3 | GFTLNSDGIS | VIPSDGRRTFYGDSVM | GRAAGTFDS |
| 7.9 µM | 1 of 3 | GFTLDSYGIS | VIYSDLERTFYGDSVK | GRAAGTFDS |
| no signal | 0 of 3 | GFTLNSFGIS | VGYSDGRRTRYGDSVK | GRAAGTFDS |
| 83 µM | 3 of 3 | EFTLNSHGIS | VIYSDGRRTFYGWSVK | GRAAGTFDS |
| no signal | 0 of 3 | GFTLNSYGIS | VHYSDGRRTFYGDSVK | GHAAMTFDS |
| no signal | 0 of 3 | GFTLRSMGIS | VIYSDGRRTFYGDSVK | GRAAGTFDS |
| no signal | 0 of 3 | GFTLNSYGIS | VIYSHGQRTFYGDSVT | GRAAGTFDS |
| 59 µM | 3 of 3 | MFTLNSGGIS | VIYSDGRRTFYGDSVK | GRAAGTFIS |
| no signal | 0 of 3 | GFTLNSYGIS | VIYSHGRRTFYIDSVK | GRAAGLFDS |
| 300 µM | 1 of 3 | GKTLNSYGIS | VIYSDGRRTFYMDSVK | GRAAGSFDS |
| no signal | 0 of 3 | GFTLNSPGIS | VIYSDGRRTFYGCSVK | GRHAGTFDS |
| 46 nM | 3 of 3 | GFTLNSYGIS | VIYSDGMRTFYGDHVK | GRAAGTFDS |
| 34 µM | 3 of 3 | GFTLNSYGIS | VIYSDGRRTFYGDHVK | MRAAGTFCS |
| 3.9 µM | 1 of 3 | GKTLNSYGIS | VPYSDGRRTFYGDSVK | GRAAGTFDY |
| no signal | 0 of 3 | GHTLNSYGIS | VIYCDGRRTFYGDSVK | GRAAGDFDS |
| 9.7 µM | 1 of 3 | GFTYNSYGIS | VIYSDGRRTFYGDSVK | GGAAGTFDS |
| no signal | 0 of 3 | GNTLNSYVIS | VIYSDGRRTFYGDSVK | GRLAGTFDS |
| 1.9 µM | 1 of 3 | GFTLNSYKIS | VIPSDGRRTFYGDSVK | GRHAGTFDS |
| no signal | 0 of 3 | GFTLNSYGIS | VIYSDGCRTFYGDSVK | GRTAGTNDS |
| 710 µM | 2 of 3 | GFTLNSYGIS | NNYSDGRRTFYGDSVK | GRAAGTFDS |
| no signal | 0 of 3 | GFTLNSYGIS | AIYEDGRRNFYGDSVK | GRAAGTFDS |
| 860 nM | 1 of 3 | GFTLNCRGIS | VIYSDHRRTFYGDSVK | GRAAGTFDS |
| no signal | 0 of 3 | GFTLNSYGIS | VIYSDGRRTFYGDSVK | ERAEGTFQS |
| 10 µM | 1 of 3 | GFTLNSYGIS | VIYSDLRRTFIGDSHK | GRAAGTFDS |
| 8.2 µM | 1 of 3 | GFTLNSYGIS | VIYSDGRRTFYGDSVK | WPANGTFDS |
| no signal | 0 of 3 | GTTLNSYKIS | VIYSDGRRTFYGDSVK | ERAAGTFDS |
| 250 µM | 1 of 3 | GFTLNSYHIS | VIYSDGRRTFYEDTVK | GRAAGTFDS |
| no signal | 0 of 3 | GETWNSYGIS | VIYSDKRRTFYGDSVK | GRAAGTFDS |
| no signal | 0 of 3 | GFTLESYGIS | KIYSDGRRTFYGISVK | GRAAGTFDS |
| 15 µM | 2 of 3 | GFTLNSYGIP | VIYSDGRRTFYGDSVK | GYAAGTFDS |
| 89 µM | 3 of 3 | GFTLNHYGIS | VIYSDGRCTFYGDSVK | GRAAGTFDS |
| 3.7 µM | 1 of 3 | GKTLNSYGIS | VIYSDGRRTFYGDSYK | GRAAGTFLS |
| no signal | 0 of 3 | GFTLSSYGIS | VIYSDGRRTFYGESDK | GRAAGTFDS |
| 2.9 µM | 3 of 3 | GFTLYSYGIS | VIYSDGRRCFYGDSVK | GRAAGTFDS |
| no signal | 0 of 3 | GFTLNSYGIS | VIYSYGRRTSDGDSVK | GRAAGTFDS |
| no signal | 0 of 3 | GFTLNSYGIS | VIYSMDRRTFYGDSVK | GRAAGTTDS |
| 10 nM | 3 of 3 | GFTLNSYGIS | VIYSDGRRTFYGDSVK | NHWAGTFDS |
| 9.2 µM | 2 of 3 | GFTLNSYGIS | TIESDGRRTFYGDSVK | GRAAETFDS |
| 140 nM | 3 of 3 | GFTLNDYGIS | VIYSDGRRTFYGDSVK | GRAAGTYDN |
| 10 µM | 1 of 3 | GFTLNSYGIS | VNYSDGRRTFGGDSVK | GRAAGWFDS |
| 33 nM | 3 of 3 | GFQLNSYQIS | VIYSDGFRTFYGDSVK | GRAAGTFDS |
| no signal | 0 of 3 | GYTLNSYGIS | VIYSDGRRTFYGDSVK | GRAAGTFFS |
| no signal | 0 of 3 | GFTLNSYGIS | VIYQDGRRTFYGDSVK | GRAAGTFSS |
| 3.2 µM | 2 of 3 | GFTLNSYPIS | VIYSDGRPTFYGDSVK | GRAAGTFDS |
| 12 nM | 3 of 3 | GFTLNSYGIS | VIYSDGRRTFYGDSVK | YRVATTFDS |
| no signal | 0 of 3 | GFTLNSYGIS | VIYSDGNRTFYGDSNK | GRAAGTLDS |
| no signal | 0 of 3 | GFTLNIYAIS | VIYSDGRRTFYGDSVG | GRAAGTFDS |
| no signal | 0 of 3 | GFTLNSYFYS | VIYSDCRRTFYGDSVK | GRAAGTFDS |
| 8.2 nM | 3 of 3 | GFNLNSEGIS | VIYSDGRRTFYGDSVK | GRAAATFDS |

The closing 5 entries, repeated:

{"CDR-H1": "GFTLNSYGIS", "CDR-H2": "VIYSDGRRTFYGDSVK", "CDR-H3": "YRVATTFDS", "Kd (apparent)": "12 nM", "seen in": "3 of 3"}
{"CDR-H1": "GFTLNSYGIS", "CDR-H2": "VIYSDGNRTFYGDSNK", "CDR-H3": "GRAAGTLDS", "Kd (apparent)": "no signal", "seen in": "0 of 3"}
{"CDR-H1": "GFTLNIYAIS", "CDR-H2": "VIYSDGRRTFYGDSVG", "CDR-H3": "GRAAGTFDS", "Kd (apparent)": "no signal", "seen in": "0 of 3"}
{"CDR-H1": "GFTLNSYFYS", "CDR-H2": "VIYSDCRRTFYGDSVK", "CDR-H3": "GRAAGTFDS", "Kd (apparent)": "no signal", "seen in": "0 of 3"}
{"CDR-H1": "GFNLNSEGIS", "CDR-H2": "VIYSDGRRTFYGDSVK", "CDR-H3": "GRAAATFDS", "Kd (apparent)": "8.2 nM", "seen in": "3 of 3"}

For reference, the parent read 4.4 nM as the reference entry and 13 µM (one replicate of three) as a member of this library.

From the AlphaSeq antibody data of Engelhart et al. 2022 (doi:10.1038/s41597-022-01779-4), copy in the FLAb collection.